## Measured vapor pressure values of organic chemicals

From the experimental data distributed with OPERA 2.9.

Vapor pressure is log10 of mmHg; the set covers 15 to 30 °C, mostly 20 to 25 °C.

structure (SMILES),vapor pressure (log10 mmHg)
C=C1CCOC(C=C(C)C)C1 (stereo not drawn),-0.362
Brc1ccc(Oc2ccccc2)cc1Br,-4.047
O=C([O-])[C@H](O)[C@@H](O)C(=O)[O-].[Na+].[Na+],-8.648
N#Cc1ccccc1-c1ccc(CBr)cc1,-2.974
C=C[Si](Cl)(Cl)CC,1.23
Clc1ccc(Cl)c(-c2c(Cl)c(Cl)cc(Cl)c2Cl)c1Cl,-4.975
CC(C)CN(CC(C)C)C(=S)SSC(=S)N(CC(C)C)CC(C)C,-7.021
CCCCCCCC(O)=NCCCC[C@H](N)C(=O)O,-5.361
C[Si](C)(CCCN)O[Si](C)(C)CCCN,-2.439
NCC1CCOC1 (stereo not drawn),-0.042
Cc1c(Br)c2ccc(F)cc2n1S(=O)(=O)c1ncn(S(=O)(=O)N(C)C)n1,-4.745
Cc1csc2c(Cl)cccc12,-1.842
CC(C)(O)c1ccccc1CC[C@H](O)c1cccc(C=Cc2ccc3ccc(Cl)cc3n2)c1,-9.98
Cc1cc(Cc2cc(C)cc(C3CCCCC3)c2O)c(O)c(C2CCCCC2)c1,-10.15
CCN(C(C)C)C(C)C,1.103
COC(C)(C)C1CC=C(C)CC1 (stereo not drawn),-1.129
CCCNC(=O)C(C)(C)CO,-2.754
COc1cc2c(cc1OC)C(C#N)C2 (stereo not drawn),-4.502
COc1cc(NS(=O)(=O)c2ccc(C)cc2)c2c(c1N)C(=O)c1ccccc1C2=O,-12.56
Clc1ccc(-c2c(Cl)cccc2Cl)c(Cl)c1,-3.625
CC(=O)C(C)=CC1C(C)=CCCC1(C)C (stereo not drawn),-1.831
C/C=C/C(C)(C)C,2.045
CC(C)CCOC(=O)c1ccccc1C(=O)OCCC(C)C,-3.727
CC(C)(CO)CO,-2.006
OC[C@@H]1CO[C@@](Cn2cncn2)(c2ccc(Cl)cc2Cl)O1 (relative stereo),-7.609
CCCCCC(C)(CC)C(=O)[O-].CCCCCC(C)(CC)C(=O)[O-].[Fe+2] (stereo not drawn),-4.945
CC(=O)CCO,-0.03
Brc1cc(Br)c(Oc2ccccc2)c(Br)c1,-4.465
Cn1sccc1=O,-2.129
O=C1c2ccccc2C(=O)N1CCS(=O)(=O)Cl,-9.544
C=CC(=O)OCCOCCOCCOCCOC(=O)C=C,-5.806
CC(=O)O[C@@H]1CCCC[C@@H]1C(C)(C)C (relative stereo),-1.137
CCN1CCN(CCC(=O)OCC(CC)(COC(=O)CCN2CCN(CC)CC2)COC(=O)CCN2CCN(CC)CC2)CC1,-9.113
CCN(CC)C(=O)c1ccc[n+](CCCS(=O)(=O)[O-])c1,-7.243
CCCCCCCCCC(=O)OCC(CO)(CO)COC(=O)C(CC)CCCC (stereo not drawn),-11.29
CNc1ccc(Cc2ccc(NC)cc2)cc1,-4.754
CCCCC(CC)COC(=O)c1ccccc1 (stereo not drawn),-0.557
Cc1ccc(NS(=O)(=O)N(C)C)cc1,-6.238
O=S(=O)([O-])c1cc(S(=O)(=O)O)cc2nc(-c3ccc(-c4nc5cc(S(=O)(=O)O)cc(S(=O)(=O)[O-])c5[nH]4)cc3)[nH]c12.[Na+].[Na+],-5.979
O=[N+]([O-])c1cc(OCc2ccccc2)ccc1C=CN1CCCC1,-8.646
Cn1cc(C(=O)Cl)c(C(F)F)n1,-0.997
C#CCCl,2.261
CCOC1=C(O)C(=O)O[C@@H]1[C@@H](O)CO,-8.072
CCOC(=O)C(C)(O)c1ccc(Oc2ccccc2)cc1 (stereo not drawn),-6.745
CN(C(=O)N(C)c1ccccc1)c1ccccc1,-5.057
CC1(C)CC(NCCCCCCNC2CC(C)(C)NC(C)(C)C2)CC(C)(C)N1,-7.223

The 3 highest values of vapor pressure among the entries above:

structure (SMILES)	vapor pressure (log10 mmHg)
C#CCCl	2.261
C/C=C/C(C)(C)C	2.045
C=C[Si](Cl)(Cl)CC	1.23

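These are experimental values that the OPERA curators gathered from public databases to train and test their QSAR models. A listed value is a point estimate from one report or more. How each value was measured is not recorded, so precision varies. The measured form (salt, isomer or mixture) is not always the one drawn. Unmarked limits or estimates from the upstream databases cannot be ruled out.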